These results are taken from patent publication US7776819B2, “Targeted drug delivery of pain and addiction therapies using opioid receptor-mediated internalization” (The Board of Trustees of the University of Illinois, priority 2005, dated 2010).

Amino acid sequences for entries named in this document (tags omitted).
UniProt P35372, whole entry: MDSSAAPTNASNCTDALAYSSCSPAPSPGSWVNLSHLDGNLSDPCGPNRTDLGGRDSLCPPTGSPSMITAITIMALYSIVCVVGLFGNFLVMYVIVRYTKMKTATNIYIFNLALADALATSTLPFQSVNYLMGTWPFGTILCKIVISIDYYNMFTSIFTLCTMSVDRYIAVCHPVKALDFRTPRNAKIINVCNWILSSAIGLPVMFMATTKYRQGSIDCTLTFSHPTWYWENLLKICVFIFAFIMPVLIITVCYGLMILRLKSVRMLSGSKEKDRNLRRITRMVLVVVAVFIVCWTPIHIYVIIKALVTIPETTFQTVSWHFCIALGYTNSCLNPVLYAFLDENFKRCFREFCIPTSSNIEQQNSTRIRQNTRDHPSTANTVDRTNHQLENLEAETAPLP

Structures are written as SMILES.

This test concerns the target T1, human mu opioid receptors (hMOR) (Homo sapiens, UniProt P35372).
T1 construct: expressed in transfected cells; host or cells: CHO cells, stably transfected (G418 selection); membrane preparation
Kind of test: [3H]DAMGO displacement receptor binding assay, CHO-hMOR membranes. To be noted: 1 nM [3H]DAMGO. How it is done:
Receptor membranes were prepared from CHO cells transfected with opioid mu receptors. Binding was performed at 30° C. in 50 mM pH 7.4 tris HCl buffer for 1 h for CHO-MOR (100 μg protein/reaction, 1 nM 3H-DAMGO). Reactions were terminated by vacuum filtration through GF/B filters pretreated with 0.2% polyethylenimine. These were then washed twice with ice-cold PBS. Filter-bound radioactivity was determined by liquid scintillation counting. Nonspecific binding was determined in the presence of 20 μM DAMGO.
Receptor binding assay was performed based on the method previously described. Briefly, membranes were prepared from CHO-hMOR cells by Polytron homogenization at setting 6 for 2 min on ice, followed by centrifugation at 20,000 g for 30 min at 4° C. Protein content was determined by the Coomassie protein assay method (Pierce Biotechnology, Rockford, Ill.) and bovine serum albumin as the standard. MOR receptor binding was conducted in triplicate with 1 nM [^3H]DAMGO in 50 mM Tris HCl buffer (pH 7.4) at 30° C. for 1 h (50 μg protein/reaction). Nonspecific binding was determined in the presence of 20 μM unlabelled DAMGO. […] Filter-bound radioactivity was determined by liquid scintillation counting (Beckman Coulter Inc., Fullerton, Calif.). Binding data representing the mean ±SD were analyzed using Prism program (GraphPad Software, San Diego, Calif.).

What is called IC50 is the concentration needed to halve the response being measured. Low readings indicate greater potency in that assay, high ones weaker potency in that assay. For the molecule `C[C@@H](NC(=O)[C@@H](N)Cc1ccc(O)cc1)C(=O)N[C@@H](Cc1ccccc1)C(=O)NCC(=O)N[C@@H](Cc1ccc(O)cc1)C(=O)N1CCC[C@H]1C(=O)N[C@@H](CO)C(N)=O` [dermorphin], the IC50 amounted to 1.6 nM.
